Laboratory results: PubChem BioAssay (NCI)
The entries are a selection whose mix differs from that of the whole data set. The source holds several records for some structures; these can differ, active in one and inactive in another. The source made the active and inactive calls. No stated cut-off is given here; in the data, active means growth inhibition above about 70%; inactive means the rest.

Assay: NCI Yeast Anticancer Drug Screen. Data for the rad52 strain (AID 147);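 further: 0% = growth of vehicle-treated control cultures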
Conditions: S. cerevisiae rad52 mutant growth inhibition, stronger effect = higher value
Protocol: Growth inhibition of yeast strains with defined genetic alterations is measured as a screen for potential anti-cancer activity. Selected strains with alterations in DNA damage repair or cell cycle control were exposed to compounds and growth inhibition was measured relative to vehicle treated controls. The strain used in this assay is rad52

Row | Compound | growth inhibition (at 1.2 µM) | growth inhibition (at 3.7 µM) | growth inhibition (at 11.0 µM) | growth inhibition (at 33.0 µM) | growth inhibition (at 100.0 µM)
1 | ClCCN1CCCCC1CCl (stereo not given) | inactive: 0% | inactive: 4% | inactive: 24% | active: 81% | active: 95%
2 | Cc1ccc([N+](=O)[O-])c(C[N+](C)(CCCl)CCCl)c1 | inactive: 19% | inactive: 34% | active: 85% | active: 94% | active: 95%
3 | COc1ccc(C[N+](C)(CCCl)CCCl)c([N+](=O)[O-])c1 | inactive: 26% | inactive: 34% | inactive: 53% | inactive: 69% | active: 74%
4 | COc1ccc([N+](=O)[O-])c(C[N+](C)(CCCl)CCCl)c1 | inactive: -11% | inactive: -17% | inactive: 10% | active: 71% | active: 92%
5 | Cn1cnc([N+](=O)[O-])c1C[N+](C)(CCCl)CCCl | inactive: -8% | inactive: 9% | inactive: 61% | active: 83% | active: 91%
